# Assay results reported in patent US20250179481A1, “COMPOSITIONS AND METHODS FOR TARGETING, EDITING, OR MODIFYING GENES” (Celyntra Therapeutics SA, priority 2021, published 2025).
# System: primary T-cells
# Assay: Primary T-cell viability 24 hours post-transfection
# Assay type: cell-based, human
# Details: P<=0.05, data not shown
# Procedure: 48 hours after isolation, the cells were harvested by centrifugation (300 g, RT, 5 minutes) and re-suspended in 20 μL at 50×10^6 cells mL^−1 in the supplemented P3 Primary Cell Nucleofector Kit buffer (Lonza). The cells were mixed with HDR templates and the suspension transferred to the RNPs immediately before transfection (Nucleofection program EH-115). After transfection, 80 μL of pre-warmed cultivation medium without IL-2 was added to the electroporation cuvettes. When using M3814 (Selleckchem), 80 μL of pre-warmed cultivation medium containing 2 μM M3814 final concentration without IL-2 was added to the electroporation cuvettes. After 10 minutes of incubation at 37° C., T-cells were transferred onto 96-well, flat-bottom, non-cell culture treated plates (Falcon) containing pre-warmed cultivation medium pretreated with 2 μM M3814 final concentration and 12.5 ng mL^−1 IL-2. The cells were seeded at a density of 0.25×10^6 cells mL^−1, or 1.3×10^6 cells mL^−1 in the experiment with M3814, and kept at 37° C., in 5% CO2 incubators. […] Insertion efficiency of CAR was measured after 7 days, and 11 days or 13 days post-transfection.
# For the cell viability and GFP knock-in measurements, approximately 250,000 cells per sample were transferred onto 96-well V-bottom cell culture plates and assessed following a series of consecutive washing and staining steps. […]
substance,measurement,value
poly-L-glutamic acid [PGA],"cell viability, treatment with PGA compared to without PGA",higher
